In patent US6171786A, “Methods for preventing multidrug resistance in cancer cells” (priority 1996, dated 2001):

System: MDR1 expression
Test: Inhibition of cytotoxic drug-induced MDR1 expression by protein kinase inhibitors (cDNA-PCR)
Conditions: concentration not stated

In the case of neomycin sulfate, the “inhibition of MDR1 induction by cytotoxic drugs” value was “capable of inhibiting MDR1 induction by cytotoxic drugs”.
